Screen for blockers of NLRP3-driven cell death, PubChem AID 2061109 (Seoul National University).
Cells: mouse bone marrow macrophages; stimulus: LPS priming, then nigericin; dose: 5 µM; read-out: propidium iodide uptake by live imaging.
Inhibition in %: 0 = stimulated control, 100 = untreated cells; values below 0 were filed as 0. * marks the depositor's active call (above 70%). Part of the library is listed.

smiles	inhibition [%]
CC(C)(CC(=O)N1CCCC1)NCC(=O)N1C[C@@H](F)C[C@H]1C#N	33.9
O=C1c2ccccc2S(=O)(=O)N1CCCCN1CCN(c2ncccn2)CC1	33.9
CCOC(=O)CN1C(=O)c2ccc3c4c(ccc(c24)C1=O)C(=O)N(CC(=O)OCC)C3=O	33.9
CCOC(=O)c1cc2cc(-c3cc(C(=O)NCc4ccc(C(=O)O)cc4)nn3C)ccc2[nH]1	33.8
CS(=O)(=O)c1ccc(Oc2cc(F)cc(C#N)c2)c2c1C(O)C(F)C2	33.7
CNCc1ccccc1Sc1cccc2ccccc12.Cl	33.7
CC1(N)CCN(c2cccnc2NC(=O)c2nc(-c3ncccc3C(F)(F)F)cnc2N)CC1	33.6
CN(Cc1cnc2nc(N)nc(N)c2n1)c1ccc(C(=O)N[C@@H](CCC(=O)O)C(=O)O)cc1	33.4
Cl.N#Cc1ncc(N2C(=O)C3(CCC3)N(c3ccc(OC4CCNCC4)nc3)C2=S)cc1C(F)(F)F	33.3
O=C(NN=Cc1ccccc1O)c1ccc(O)c(O)c1	32.9
Cn1c(-c2nc3cc(C(=O)N4CCCC(N)C4)ccc3n2C)cc2ccccc21.O=C(O)C(F)(F)F	32.9
Cc1c(OCC(F)(F)F)ccnc1C[S@](=O)c1nc2ccccc2[nH]1	32.5
Cn1c(=O)c2c3c(ccc2c2ccc4cc5c(cc4c21)OCO5)OCO3	32.3
Cc1noc(-c2ccc(-c3ccc(C4(C(=O)O)CC4)cc3)cc2)c1NC(=O)O[C@H](C)c1ccccc1	31.8
CN=C(NC#N)Nc1ccc(C2=NNC(=O)CC2C)cc1	31.7
CCOC(=O)c1cc2ccccc2n1S(=O)(=O)c1ccc(C)cc1	31.6
COc1cc(O)cc2oc(-c3ccc(O)c(O)c3)c(O)c(=O)c12	31.6
Cc1cccc(C#Cc2ccccc2)n1.Cl	31.2
COc1cc(O)c2c(c1)O[C@H](c1cc(O)cc(O)c1)CC2=O	31.2
O=C1CN(CCN2CC(=O)N(CN3CCOCC3)C(=O)C2)CC(=O)N1CN1CCOCC1	31.0
CC(=O)OC(C)C(C)C(=O)OC[C@@]12[C@H]3C[C@]4(C)C(=CC[C@@H]5[C@@]6(C)CC[C@H](O[C@@H]7O[C@H](C(=O)[O-])[C@@H](O[C@@H]8O[C@H](CO)[C@@H](O)[C@H](O)[C@H]8O)[C@H](O)[C@H]7O[C@@H]7OC[C@@H](O)[C@H](O)[C@H]7O)[C@@](C)(CO)[C@@H]6CC[C@]54C)[C@@H]1CC(C)(C)[C@H](O3)[C@@H]2O.[Na+]	30.9
O=C(Cc1nnc(-c2cnc(NC3Cc4ccccc4C3)nc2)o1)N1CCc2n[nH]nc2C1	30.7
COCCOC1CCC(Nc2cc(=O)n(C)c3ccc(-c4cncs4)cc23)CC1	30.6
CC(=O)O.CC(=O)O.CCC(C)CC(C)CCCCCCCCC(=O)N[C@H]1C[C@@H](O)[C@@H](NCCN)NC(=O)[C@@H]2[C@@H](O)CCN2C(=O)[C@H]([C@H](O)CCN)NC(=O)[C@H]([C@H](O)[C@@H](O)c2ccc(O)cc2)NC(=O)[C@@H]2C[C@@H](O)CN2C(=O)[C@H]([C@@H](C)O)NC1=O	30.5
CC[C@@H](C)NS(=O)(=O)c1ccc(F)c(C(=O)Nc2ccc(F)c(F)c2)c1	30.4
O=C(O)C1CCCN1C(=O)OCc1ccccc1	30.4
COc1cc2oc(=O)ccc2c(OC)c1C[C@@H](O)C(C)(C)O	30.2
CCOc1ccc2nc3cc(N=Nc4ccc(N)nc4N)ccc3c(N)c2c1	30.2
Fc1ccc(-c2nc(-c3ccc4ccccc4c3F)[nH]c2-c2ccncc2)cc1	30.1
CC(C(O)c1ccc(O)cc1)N1CCC(Cc2ccccc2)CC1	29.9
CS(=O)(=O)NC(=O)c1cc(Oc2ccc(C(F)(F)F)cc2Cl)ccc1[N+](=O)[O-]	29.9
NS(=O)(=O)c1ccc(-n2nc(CCCNC(=O)Nc3ccc(C(F)(F)F)cc3)cc2-c2ccccc2)cc1	29.9
C[N+]1(C)[C@@H]2CC[C@H]1CC(OC(=O)C(CO)c1ccccc1)C2.[Br-]	29.5
Nc1ccc(C(=O)Nc2ccc(C(F)(F)F)cc2)cc1	29.2
CCOC(=O)N1CCC(NS(=O)(=O)c2ccc(NC(=O)c3ccccc3C)c3ccccc23)CC1	29.1
NC(=O)CN1CCN(c2ccc(Nc3ncc4ccn(Cc5cc(F)cc(F)c5)c4n3)cc2)CC1	28.8
Cc1[nH]c2c(N3CCO[C@H](CO)C3)c(C#N)c(C(F)(F)F)nc2c1Cl	28.6
O=S(=O)(Cc1ccccc1)N1C=Cc2ccccc2C1c1c[nH]c2ccccc12	28.4
CC(C)CC(NC(=O)C(Cc1ccccc1)NC(=O)c1cnccn1)B1OC2CC3CC(C3(C)C)C2(C)O1	27.8
CN(C(=O)Oc1nsnc1N1CCOCC1)C1CCCCCCC1	27.8
O=C1NC(=S)NC(=O)C1=Cc1ccc(-c2ccc(Cl)cc2Cl)o1	27.8
Cc1cc2nc3c4ccccc4n(CCN(C)C)c3nc2cc1C	27.8
N#Cc1ccc2ncnc(NC3CCC(N4CCOCC4)CC3)c2c1	27.7
CCCCCc1cc(O)c(C/C=C(\C)CCC=C(C)C)c(O)c1	27.1
CC(=O)N1c2ccc(-c3ccc(C(=O)O)cc3)cc2[C@H](Nc2ccc(Cl)cc2)C[C@@H]1C	27.1
CN(C)C/C=C/C(=O)Nc1ccc(C(=O)N2CCC[C@@H](Nc3ncc(Cl)c(-c4c[nH]c5ccccc45)n3)C2)cc1	27.0
COc1cc2c(c(O)c1OC)C(=O)c1c(cc(C)c(O)c1OC)C2=O	26.8
Cl.NCc1ccc2c(c1)nc(CN1C(=O)C3(CC3)c3ccc(F)cc31)n2CCCC(F)(F)F	26.8
Cc1cc(C)nc(SCC(=O)Nc2ncc(Cc3cccc4ccccc34)s2)n1	26.7
O=C(c1c(O)c2ccc(Cl)cc2[nH]c1=O)C1CC1	26.4
Cc1ccccc1C(=O)N1CCc2cc(-c3nc(NC(=O)Cc4ccc5c(c4)OCO5)sc3C)ccc21	26.3
Cl.Cn1cc(-c2nc(N[C@@H]3CCCC[C@@H]3N)c(F)c3c2C(=O)NC3)cn1	26.2
O=C(CC(CO)N1CCN(c2ccc(OC(F)(F)F)cc2)CC1)Nc1ccc(Cl)cc1	26.0
Cn1ncc2cc(-c3cnc(N)c(Cl)c3N3CCC4(CCNC4=O)CC3)ccc21	25.9
NC(CCCP(=O)(O)O)C(=O)O	25.9
CC(C)COCC(CN(Cc1ccccc1)c1ccccc1)N1CCCC1.Cl	25.8
CN(C)C(=O)n1nnnc1Cc1ccc(-c2ccccc2)cc1	25.7
CNC(=O)c1ccc(Nc2ncc(C(F)(F)F)c(NCc3nccnc3N(C)S(C)(=O)=O)n2)cc1.Cl	25.7
C=C(C)C(=O)O[C@H]1[C@@H]2[C@H](C)C(=O)O[C@@H]2C[C@@H](C)[C@@H]2C=CC(=O)[C@]21C	25.7
O=C(CNC(=O)c1ccc(C2=NOC(c3cc(Cl)cc(C(F)(F)F)c3)(C(F)(F)F)C2)c2ccccc12)NCC(F)(F)F	25.3
CCC(C)n1ncn(-c2ccc(N3CCN(c4ccc(OC[C@H]5CO[C@](Cn6cncn6)(c6ccc(Cl)cc6Cl)O5)cc4)CC3)cc2)c1=O	25.2
CC(C)(C)Sc1c(CC(C)(C)C(=O)O)n(Cc2ccc(Cl)cc2)c2ccc(OCc3ccc4ccccc4n3)cc12	25.2
C[C@@H](OC[C@@]1(c2ccccc2)CC[C@]2(CCC(=O)N2)CN1)c1cc(C(F)(F)F)cc(C(F)(F)F)c1.Cl	25.1
COc1nsc(NC(=O)N2C[C@H]3CC(N(C)c4ncnc5[nH]ccc45)C[C@H]3C2)n1	24.9
COc1c2c(cc3oc(CO[C@@H]4O[C@H](CO)[C@@H](O)[C@H](O)[C@H]4O)cc(=O)c13)O[C@H](C(C)(C)O)C2	24.8
COc1ccc(CNCc2cccc3ccccc23)cc1.Cl	24.7
C[C@@H]1COCCN1c1cc(-c2ccnn2C)c2ccnc(-c3ccn[nH]3)c2n1.Cl	24.6
N#CC1(c2cccc(C(=O)Nc3cc(Oc4ccc5nc(NC(=O)C6CC6)sc5n4)ccc3F)c2Cl)CC1	24.2

4 of the compounds above, restated:

{"smiles": "CS(=O)(=O)c1ccc(Oc2cc(F)cc(C#N)c2)c2c1C(O)C(F)C2", "inhibition [%]": "33.7"}
{"smiles": "CC1(N)CCN(c2cccnc2NC(=O)c2nc(-c3ncccc3C(F)(F)F)cnc2N)CC1", "inhibition [%]": "33.6"}
{"smiles": "CNC(=O)c1ccc(Nc2ncc(C(F)(F)F)c(NCc3nccnc3N(C)S(C)(=O)=O)n2)cc1.Cl", "inhibition [%]": "25.7"}
{"smiles": "CCOC(=O)c1cc2ccccc2n1S(=O)(=O)c1ccc(C)cc1", "inhibition [%]": "31.6"}